This is a selection; strong and weak results do not stand in their true shares. Inconclusive results are not listed. Calls of active or inactive are those of the source. The call rests on the fitted dose curve; in most records, active means well fitted inhibition curve with a large enough effect; inconclusive means small, poorly fitted or top-dose-only effect; inactive means no such curve, though single readings can be large or run the other way.

In PubChem BioAssay AID1508623 (National Center for Advancing Translational Sciences (NCATS), 2021) one finds activity change, negative = inhibition data, which are given here for 16 compounds.

The assay can be described thus: Primary qHTS for Identification of Small Molecule Inhibitors of Huntingtin Promoter Activity. Further: nearly all actives have a fitted effect of over 50% in size. The note with it: HEK293 HTT promoter firefly luciferase reporter (activity 0% = vehicle and -100% = no light), 24 h; at 57.5 µM (top of the series). The source says: Assay Provider: Russell L. Margolis M.D.
Department Neurology, Johns Hopkins University School of Medicine, Baltimore, MD
Huntington's Disease (HD) is a neurodegenerative disorder caused by a CAG repeat expansion in exon 1 of huntingtin (HTT). While there are currently no disease-modifying treatments for HD, recent efforts have focused on development of nucleotide-based therapeutics to lower HTT expression. As an alternative to siRNA or oligonucleotide methods, we hypothesized that suppression of HTT expression might be accomplished by small molecules that either (1) directly decrease HTT expression by suppressing HTT promoter activity or (2) indirectly decrease HTT expression by increasing the promoter activity of HTT-AS, the gene antisense to HTT that appears to inhibit expression of HTT.
We developed and employed a high throughput screen for modifiers of HTT and HTT-AS promoter activity using luminescent reporter HEK293 cells; of the 52,041 compounds tested, we identified 898 replicable hits. We used a rigorous stepwise approach to assess compound toxicity and the capacity of the compounds to specifically lower huntingtin protein in 5 different cell lines, including HEK293 cells, HD lymphoblastoid cells, mouse primary neurons, HD iPSCs differentiated into cortical-like neurons, and HD hESCs. We found no compounds which were able to lower huntingtin without lowering cell viability in all assays, though the potential efficacy of a few compounds at non-toxic doses could not be excluded.
SEQUENCE No. (1, 2, 3, etc.); […] (e.g., Cells, Incubation, Reagent, etc.); VALUE and DESCRIPTION.
1; Reagent; 4 uL; 2,500 Hek293 luciferase reporter cells per wells
3; Compound; 23 nL; Control inhibitor / compound library
5; Reagent; 2.5 uL; Firefly Luc reagent; Dual-Glo Luciferase Reporter Assay System (Promega)
6; Time; 10 min; room temperature incubation
7; Detection; Luminescence; FLuc
NOTES (numbers refer to sequence above)
1; High-throughput screening, measuring luminescence from a Hek293 luciferase reporter, was performed in 1,536 well white-walled tissue-culture treated plates. 2,500 cells were plated in 4 µL of Opti-MEM per well using a Multidrop Combi Reagent Dispenser (ThermoFisher).
2; Assay plates were cultured for 24 hours.
3; Control inhibitor (PTC124; final concentration of 50 uM) and compound library (at final concentrations of 460 nM - 57.5 uM) were added to the assay plate using the Kalypsis Pintool Robotic System equipped with 1536 pinheads.
4; Cells were then incubated for 24 hours at 37 degrees C prior to luminescence measurements.
5; In all cases, luminescence was measured using the Dual-Glo Luciferase Reporter Assay System (Promega) following the manufacturer's instructions.
6; Room temperature incubation.
7; Luminescence signal was obtained using the PerkinElmer ViewLux plate reader. Results were normalized to vehicle control (0% activity) and zero RLU (-100% activity).
(In qHTS, concentration-response curves come from the screen itself.)
In the case of `CCOC(=O)C(=O)CBr`, the activity change, negative = inhibition is inactive: -2.96%.
In the case of `COc1ccccc1C(=O)NCC1(N2CCOCC2)CCCCC1` it was inactive: -5.9%; in that of `O=C(NCC1(N2CCOCC2)CCCCC1)c1ccc(Cl)cc1`, inactive: -5.75%.
In the case of `CCOC(=O)N1CCC(=O)CC1` it was inactive: 1.2%; in that of `CCCCOc1ccccc1C(=O)NCC1(N2CCOCC2)CCCCC1`, inactive: -20.8%; in that of `O=C(NCC1(N2CCOCC2)CCCCC1)c1ccccc1Br`, inactive: -12.8%.
Take `CCCOc1cccc(C(=O)NCC2(N3CCOCC3)CCCCC2)c1`: the activity change, negative = inhibition is inactive: -18.1%.
As to `CCOc1ccc(C(=O)NCC2(N3CCOCC3)CCCCC2)cc1`, the activity change, negative = inhibition is inactive: -14%.
To `O=C(NCC1(N2CCOCC2)CCCCC1)c1ccccc1` belongs inactive: -7.8%; to `O=C(NCC1(N2CCOCC2)CCCCC1)c1ccc([N+](=O)[O-])cc1`, inactive: -15.1%; to `O=C(NCC1(N2CCOCC2)CCCCC1)c1ccccc1[N+](=O)[O-]`, inactive: -6.72%.
Turning to `CCC(=O)N(c1ccccc1)C1CCNCC1`, the activity change, negative = inhibition was inactive: -3.47%.
In the case of `COc1cc(C(=O)NCC2(N3CCOCC3)CCCCC2)cc(OC)c1OC` it was inactive: -12%.
To `CC(C)(C)c1ccc(C(=O)NCC2(N3CCOCC3)CCCCC2)cc1` belongs inactive: -18.5%; to `Cc1ccccc1C(=O)NCC1(N(C)C)CCCCC1`, inactive: -8.43%.
Consider `CN(C)C1(CNC(=O)c2ccc(C(C)(C)C)cc2)CCCCC1`, for which the activity change, negative = inhibition is inactive: -13.2%.
